The entries are a selection whose mix differs from that of the whole data set. Activity calls are given as the source filed them. No stated cut-off is given here; in the data, active means activation above about 50%; inactive means the rest.

By UniProt entry, the sequences of proteins in these tests, tags left out.
UniProt P0AE70, whole entry, looked up: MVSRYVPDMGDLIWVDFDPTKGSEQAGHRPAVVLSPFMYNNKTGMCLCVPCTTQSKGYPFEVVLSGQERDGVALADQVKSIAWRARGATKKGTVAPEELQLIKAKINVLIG

This test deals with Endoribonuclease toxin MazF (Escherichia coli (strain K12)) (UniProt P0AE70). The experiment in a line: activators of E. coli MazEF toxin-antitoxin RNase, primary screen, biochemical, fluorescence, uHTS (AID 504720). Particulars: FAM/BHQ RNA-DNA oligo cleavage fluorescence, 5 h, at 20 µM, hits give high values.
Take `CCC(=O)N(c1ccccc1)C1(COC)CCN(CCn2nnn(CC)c2=O)CC1`: the activation is inactive: 0.2%.
Next, `CCC(=O)N(c1ccccc1)C1(COC)CCN(CCc2cccs2)CC1`: inactive: 3.4%.

(Values after PubChem BioAssay AID504720 (Sanford-Burnham Center for Chemical Genomics, 2011).)
